Laboratory results reported in patent US20260022143A1, “Cyclic Peptide Inhibitors of IL-23” (JANSSEN PHARMACEUTICA NV, priority 2022, published 2026).

What follows are compounds tested against T1, IL-23R (Homo sapiens, UniProt Q5VWK5) (assay: IL23R Reporter Assay). Conditions: HEK293 cells containing IL-23R, IL-12RP1 and STAT-inducible firefly luciferase reporter; 10 ng/mL IL-23 (EC90); 5 h at 37° C.; read-out: IL23R Reporter Assay.
T1 construct: host or cells: HEK293
T1 sequence (Q5VWK5 24-629): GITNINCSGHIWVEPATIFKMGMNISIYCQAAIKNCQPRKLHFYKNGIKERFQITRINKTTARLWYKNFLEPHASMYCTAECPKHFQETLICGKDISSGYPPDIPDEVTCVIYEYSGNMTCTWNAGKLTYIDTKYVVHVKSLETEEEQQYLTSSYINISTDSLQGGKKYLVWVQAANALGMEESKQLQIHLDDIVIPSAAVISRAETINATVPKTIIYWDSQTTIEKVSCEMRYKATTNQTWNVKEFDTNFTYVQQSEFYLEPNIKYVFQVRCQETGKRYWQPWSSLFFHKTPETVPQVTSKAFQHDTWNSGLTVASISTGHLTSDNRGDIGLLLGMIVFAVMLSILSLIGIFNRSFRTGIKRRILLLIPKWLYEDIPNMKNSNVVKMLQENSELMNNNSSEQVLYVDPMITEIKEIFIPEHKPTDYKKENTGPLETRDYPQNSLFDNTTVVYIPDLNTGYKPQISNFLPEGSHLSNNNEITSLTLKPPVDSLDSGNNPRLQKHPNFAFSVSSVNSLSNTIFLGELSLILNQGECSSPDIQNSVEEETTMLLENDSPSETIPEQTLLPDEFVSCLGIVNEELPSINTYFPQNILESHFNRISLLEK
Assay type: cell-based

| Structure (SMILES) | IC50 [nM] |
| --- | --- |
| CC(=O)NCCCC[C@@H]1NC(=O)[C@H](Cc2c[nH]c3c(-c4cccc(NC(C)=O)c4)cccc23)NC(=O)[C@H]([C@@H](C)O)NC(=O)[C@H](CC(N)=O)NC(=O)[C@@H](NC(=O)[C@@H](CCCC[N+](C)(C)C)NC(C)=O)C(C)(C)SSC(C)(C)[C@@H](C(=O)N[C@@H](Cc2ccc(OCCCCC[N+](C)(C)C)cc2)C(=O)N[C@@H](Cc2ccc3ccccc3c2)C(=O)NC2(C(=O)N[C@@H](CCC(=O)O)C(=O)N[C@@H](CC(N)=O)C(=O)N[C@@H](Cc3cncc(C)c3)C(=O)N(C)CC(N)=O)CCOCC2)NC1=O [compound 513, MeCO-k(Me)3-Pen(3)-N-T-7(3NAcPh)W-K(Ac)-Pen(3)-TMAPF-2Nal-THP-E-N-5MePyridinAla-Sar-CONH2] | 5.3 |
| CC(=O)NCCCC[C@@H]1NC(=O)[C@H](Cc2c[nH]c3c(-c4cccc(NC(C)=O)c4)cccc23)NC(=O)[C@H]([C@@H](C)O)NC(=O)[C@H](CC(N)=O)NC(=O)[C@@H](NC(=O)[C@@H](CCCC[N+](C)(C)C)NC(C)=O)C(C)(C)SSC(C)(C)[C@@H](C(=O)N[C@@H](Cc2ccc(OCCN)cc2)C(=O)N[C@@H](Cc2ccc3ccccc3c2)C(=O)NC2(C(=O)N[C@@H](CCC(=O)O)C(=O)N[C@@H](CC(N)=O)C(=O)N[C@@H](Cc3cncc(C)c3)C(=O)N(C)CC(N)=O)CCOCC2)NC1=O [compound 535, MeCO-k(Me)3-Pen(3)-N-T-7(3NAcPh)W-K(Ac)-Pen(3)-AEF-2Nal-THP-E-N-5MePyridinAla-Sar-CONH2] | 2.2 |
| CC(=O)NCCCC[C@@H]1NC(=O)[C@H](Cc2c[nH]c3cccc(C)c23)NC(=O)[C@H]([C@@H](C)O)NC(=O)[C@H](CC(N)=O)NC(=O)[C@@H](NC(C)=O)C(C)(C)SSC(C)(C)[C@@H](C(=O)N[C@@H](Cc2ccc(OCCCCC[N+](C)(C)C)cc2)C(=O)N[C@@H](Cc2ccc3ccccc3c2)C(=O)NC2(C(=O)N[C@@H](CCCCNC(C)=O)C(=O)N[C@@H](CC(N)=O)C(=O)N[C@@H](Cc3cccnc3)C(=O)N(C)CC(N)=O)CCCC2)NC1=O [compound 537, MeCO-Pen(3)-N-T-7MeW-K(Ac)-Pen(3)-TMAPF-2Nal-Acpx-K(Ac)-N-3Pya-Sar-CONH2] | 2.9 |
| CC(=O)NCCCC[C@@H]1NC(=O)[C@H](Cc2c[nH]c3c(-c4cccc(NC(C)=O)c4)cccc23)NC(=O)[C@H]([C@@H](C)O)NC(=O)[C@H](CC(N)=O)NC(=O)[C@@H](NC(=O)[C@@H](CCCNC(=N)N)NC(C)=O)C(C)(C)SSC(C)(C)[C@@H](C(=O)N[C@@H](Cc2ccc(OCCCCC[N+](C)(C)C)cc2)C(=O)N[C@@H](Cc2ccc3ccccc3c2)C(=O)NC2(C(=O)N[C@@H](CCC(=O)O)C(=O)N[C@@H](CC(N)=O)C(=O)N[C@@H](Cc3cncc(C)c3)C(=O)N(C)CC(N)=O)CCOCC2)NC1=O [compound 540, MeCO-r-Pen(3)-N-T-7(3NAcPh)W-K(Ac)-Pen(3)-TMAPF-2Nal-THP-E-N-5MePyridinAla-Sar-CONH2] | 3.9 |
| CC(=O)NCCCC[C@@H]1NC(=O)[C@H](Cc2c[nH]c3c(C)cccc23)NC(=O)[C@H]([C@@H](C)O)NC(=O)[C@H](CC(N)=O)NC(=O)[C@@H](NC(C)=O)C(C)(C)SSC(C)(C)[C@@H](C(=O)N[C@@H](Cc2ccc(OCC[N+]3(C)CCOCC3)cc2)C(=O)N[C@@H](Cc2ccc3ccccc3c2)C(=O)NC2(C(=O)N[C@@H](CCCCNC(C)=O)C(=O)N[C@@H](CC(N)=O)C(=O)N[C@@H](Cc3cccnc3)C(=O)N(C)CC(N)=O)CCOCC2)NC1=O [compound 562, MeCO-Pen(3)-N-T-7MeW-K(Ac)-Pen(3)-MMoEF-2Nal-THP-K(Ac)-N-3Pya-Sar-CONH2] | 2.7 |

Other lines, results leading:

| IC50 [nM] | Structure (SMILES) |
| --- | --- |
| 3.6 | CC(=O)NCCCC[C@@H]1NC(=O)[C@H](Cc2c[nH]c3c(C)cccc23)NC(=O)[C@H]([C@@H](C)O)NC(=O)[C@H](CC(N)=O)NC(=O)[C@@H](NC(=O)CCOCCOCC[N+](C)(C)C)C(C)(C)SSC(C)(C)[C@@H](C(=O)N[C@@H](Cc2ccc(OCCCCC[N+](C)(C)C)cc2)C(=O)N[C@@H](Cc2ccc3ccccc3c2)C(=O)NC2(C(=O)N[C@@H](CCC(=O)O)C(=O)N[C@@H](CC(N)=O)C(=O)N[C@@H](Cc3cncc(C)c3)C(=O)N(C)CC(N)=O)CCOCC2)NC1=O [compound 505, cPEG3aCO-Pen(3)-N-T-7MeW-K(Ac)-Pen(3)-TMAPF-2Nal-THP-E-N-5MePyridinAla-Sar-CONH2] |
| 2.9 | CC(=O)NCCCC[C@@H]1NC(=O)[C@H](Cc2c[nH]c3c(C)cccc23)NC(=O)[C@H]([C@@H](C)O)NC(=O)[C@H](CC(N)=O)NC(=O)[C@@H](NC(=O)[C@@H](CCCNC(=N)N)NC(=O)CCOCCOCC[N+](C)(C)C)C(C)(C)SSC(C)(C)[C@@H](C(=O)N[C@@H](Cc2ccc(OCCNC(=N)N)cc2)C(=O)N[C@@H](Cc2ccc3ccccc3c2)C(=O)NC2(C(=O)N[C@@H](CCC(=O)O)C(=O)N[C@@H](CC(N)=O)C(=O)N[C@@H](Cc3cncc(C)c3)C(=O)N(C)CC(N)=O)CCOCC2)NC1=O [compound 508, cPEG3aCO-r-Pen(3)-N-T-7MeW-K(Ac)-Pen(3)-AEF(G)-2Nal-THP-E-N-5MePyridinAla-Sar-CONH2] |
| 4.7 | CC(=O)NCCCC[C@@H]1NC(=O)[C@H](Cc2c[nH]c3c(C)cccc23)NC(=O)[C@H]([C@@H](C)O)NC(=O)[C@H](CC(N)=O)NC(=O)[C@@H](NC(=O)CCOCCOCC[N+](C)(C)C)C(C)(C)SSC(C)(C)[C@@H](C(=O)N[C@@H](Cc2ccc(OCCNC(=N)N)cc2)C(=O)N[C@@H](Cc2ccc3ccccc3c2)C(=O)NC2(C(=O)N[C@@H](CCC(=O)O)C(=O)N[C@@H](CC(N)=O)C(=O)N[C@@H](Cc3cncc(C)c3)C(=O)N(C)CC(N)=O)CCOCC2)NC1=O [compound 514, cPEG3aCO-Pen(3)-N-T-7MeW-K(Ac)-Pen(3)-AEF(G)-2Nal-THP-E-N-5MePyridinAla-Sar-CONH2] |
| 3.3 | CC(=O)N(C)CCCC[C@@H]1NC(=O)[C@H](Cc2c[nH]c3c(C)cccc23)NC(=O)[C@H]([C@@H](C)O)NC(=O)[C@H](CC(=O)N(C)C)NC(=O)[C@@H](NC(=O)CCOCCOCCN)C(C)(C)SSC(C)(C)[C@@H](C(=O)N[C@@H](Cc2ccc(OCCCCCN)cc2)C(=O)N[C@@H](Cc2ccc3ccccc3c2)C(=O)NC2(C(=O)N[C@@H](CCCCN(C)C(C)=O)C(=O)N[C@@H](CC(N)=O)C(=O)N[C@@H](Cc3cccnc3)C(=O)N(C)CC(=O)N(C)C)CCOCC2)NC1=O [compound 529, cPEG3AmCO-Pen(3)-N(N(Me)2)-T-7MeW-K(NMeAc)-Pen(3)-APF-2Nal-THP-K(NMeAc)-N-3Pya-Sar-CON(Me)2] |
| 2.9 | CC(=O)NCCCC[C@@H]1NC(=O)[C@H](Cc2c[nH]c3c(-c4cccc(NC(C)=O)c4)cccc23)NC(=O)[C@H]([C@@H](C)O)NC(=O)[C@H](CC(N)=O)NC(=O)[C@@H](NC(=O)[C@@H](CCCNC(=N)N)NC(=O)CCOCCOCC[N+](C)(C)C)C(C)(C)SSC(C)(C)[C@@H](C(=O)N[C@@H](Cc2ccc(OCCN)cc2)C(=O)N[C@@H](Cc2ccc3ccccc3c2)C(=O)NC2(C(=O)N[C@@H](CCC(=O)O)C(=O)N[C@@H](CC(N)=O)C(=O)N[C@@H](Cc3cncc(C)c3)C(=O)N(C)CC(N)=O)CCOCC2)NC1=O [compound 536, cPEG3aCO-r-Pen(3)-N-T-7(3NAcPh)W-K(Ac)-Pen(3)-AEF-2Nal-THP-E-N-5MePyridinAla-Sar-CONH2] |
| 1.9 | CC(=O)NCCCC[C@@H]1NC(=O)[C@H](Cc2c[nH]c3c(C)cccc23)NC(=O)[C@H]([C@@H](C)O)NC(=O)[C@H](CC(N)=O)NC(=O)[C@@H](NC(=O)[C@@H](CCCNC(=N)N)NC(=O)CCOCCOCC[N+](C)(C)C)C(C)(C)SSC(C)(C)[C@@H](C(=O)N[C@@H](Cc2ccc(OCCCCC[N+](C)(C)C)cc2)C(=O)N[C@@H](Cc2ccc3ccccc3c2)C(=O)NC2(C(=O)N[C@@H](CCC(=O)O)C(=O)N[C@@H](CC(N)=O)C(=O)N[C@@H](Cc3cncc(C)c3)C(=O)N(C)CC(N)=O)CCOCC2)NC1=O [compound 542, cPEG3aCO-r-Pen(3)-N-T-7MeW-K(Ac)-Pen(3)-TMAPF-2Nal-THP-E-N-5MePyridinAla-Sar-CONH2] |
| 5.3 | CC(=O)N[C@@H](COCCOCCNC(=N)N)C(=O)N[C@@H]1C(=O)N[C@@H](CC(=O)N(C)C)C(=O)N[C@@H]([C@@H](C)O)C(=O)N[C@@H](Cc2c[nH]c3c(C)cccc23)C(=O)N[C@@H](CCCCN(C)C(C)=O)C(=O)N[C@H](C(=O)N[C@@H](Cc2ccc(OCCOCCOCC[N+](C)(C)C)cc2)C(=O)N[C@@H](Cc2ccc3ccccc3c2)C(=O)NC2(C(=O)N[C@@H](CCCCN(C)C(C)=O)C(=O)N[C@@H](CC(N)=O)C(=O)N[C@@H](Cc3cccnc3)C(=O)N(C)CC(N)=O)CCOCC2)C(C)(C)SSC1(C)C [compound 552, MeCO-gPEG2Ser-Pen(3)-N(N(Me)2)-T-7MeW-K(NMeAc)-Pen(3)-APEG3F-2Nal-THP-K(NMeAc)-N-3Pya-Sar-CON(Me)2] |
| 2.3 | CC(=O)NCCCC[C@@H]1NC(=O)[C@H](Cc2c[nH]c3c(C)cccc23)NC(=O)[C@H]([C@@H](C)O)NC(=O)[C@H](CC(N)=O)NC(=O)[C@@H](NC(C)=O)C(C)(C)SSC(C)(C)[C@@H](C(=O)N[C@@H](Cc2ccc(OCC[N+](C)(C)C)cc2)C(=O)N[C@@H](Cc2ccc3ccccc3c2)C(=O)NC2(C(=O)N[C@@H](CCCCNC(C)=O)C(=O)N[C@@H](CC(N)=O)C(=O)N[C@@H](Cc3cccnc3)C(=O)N(C)CC(N)=O)CCOCC2)NC1=O [compound 561, MeCO-Pen(3)-N-T-7MeW-K(Ac)-pen(3)-AEF(NMe3)-2Nal-THP-K(Ac)-N-3Pya-Sar-CONH2] |
